EC50 data for 1 compound are collected here from ChEMBL document CHEMBL6078645, “Expanding the Solvent/Protein Region Occupation of the Non-Nucleoside Reverse Transcriptase Inhibitor Binding Pocket for Improved Broad-Spectrum Anti-HIV-1 Efficacy: from Rigid Phenyl-Diarylpyrimidines to Flexible Hydrophilic Piperidine-Diarylpyrimidines” (J Med Chem, 2024).

This test deals with Human immunodeficiency virus type 1 reverse transcriptase (Human immunodeficiency virus 1, UniProt Q72547). In words: Inhibition of HIV-1 reverse transcriptase.

As a reminder, the EC50 is the concentration giving half of the maximal effect. Compound `Cc1cc(C#N)cc(C)c1Oc1nc(Nc2ccc(C#N)cc2)nc(N)c1Br` [ETRAVIRINE] showed an EC50 of 3 nM.
